Reference: PubChem BioAssay AID504800 (The Scripps Research Institute Molecular Screening Center, 2011)
This is a selection; strong and weak results do not stand in their true shares. Activity calls are given as the source filed them.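 The calls were made as follows: active = mean activation over replicate wells exceeds the adjusted hit threshold taken from the earlier primary screen (cut at about 20% in these data); inactive = the rest.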

Molecular target: cAMP-dependent protein kinase type I-alpha regulatory subunit (Bos taurus) (UniProt P00514)
Test: PKAc release from R1A subunit – biochemical, fluorescence polarization, Cy5-IP20, triplicate, confirmation (AID 504800);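 also: 0% = holoenzyme mix with DMSO only and 100% = cGMP-activated control wells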
Conditions: PKA-R1A holoenzyme dissociation, at 11.4 µM, stronger effect = higher value

In the case of `CC(C)c1ccc(OP(=O)(Nc2ccccn2)Oc2ccccc2F)cc1` (stereo unspecified), the activation is reported as inactive: -1.33%.
